From PubChem BioAssay
Most compounds without a hit are left out; they make up all but 0.2% or so of the library.
Apoferritin bind = binds horse apoferritin like a general anesthetic. P02791. apoferritin/1-aminoanthracene competitive binding, fluorescence. Potency, µM (top dose mostly 77.5 µM), inactives show at the top dose activity change, negative = displacement, usual class: inhibitors. hit rate 0.074% among 350,000. AID 485281; also: potency is read from the fitted curve at half-maximal effect; % is scaled to controls: 0 for no effect and ±100 for the full control effect; nearly all actives have a fitted effect of over 20% in size
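Horse-spleen apoferritin (10 uM) in 50% saturated 1-aminoanthracene in PBS was incubated 10 min at room temperature with compound. Fluorescence (ex 380, em 535 nm) was normalized to free and bound 1-AMA, with concentration-response fitted by a four-parameter Hill equation.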
LDHA block = inhibitors of human lactate dehydrogenase A. P00338. purified LDHA, NADH/diaphorase-resazurin fluorescence; stronger effect = lower value. activity change, % (values are at about 110 or 230 µM). hit rate 0.15% among 480,000. AID 1347041; in the data active = activity change below about -30%; inconclusive = mostly about -25% to -30%;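 also: plate controls were DMSO wells for no effect and wells without enzyme for full effect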
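Remaining NADH was detected by diaphorase (0.133 mg/mL) converting 37 µM resazurin to fluorescent resorufin, read at 0 and 20 minutes. The preceding 5-minute room-temperature reaction used 2 nM LDHA, 0.2 mM sodium pyruvate and 0.06 mM NADH at pH 7.4.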
miR-21 reporter = raises the signal of a miR-21 reporter; HeLa miR-21 FLuc reporter, luciferase, 48 h; Potency, µM (top dose mostly 38.3 µM), for inactives: at the highest dose reporter change, positive = more light; AID 2288; 340,000 tested, under 10 active; active = well fitted rising curve with a large enough effect; inconclusive = small, poorly fitted or top-dose-only effect; inactive = no such curve, though single readings can be large or run the other way;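 note: % of control where 0% means no effect; miR-21 action dims this reporter so a rising signal means less miR-21 action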
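HeLa cells stably expressing CMV-driven firefly luciferase with a downstream miR-21 binding sequence, endogenously expressing miR-21, were treated with titrations (up to about 40uM final) for 48 hours at 37 degree Celsius. Luciferase luminescence was read after lysis.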
* hit, by the source's call; ? = inconclusive; · = no result. Unless noted, calls follow the shape of the dose curve; as a rule, active = well fitted curve in the direction sought with a large enough effect; inconclusive = small, poorly fitted or top-dose-only effect, or another doubt; inactive = no such curve, though single readings can be large; an effect the other way counts as inactive or inconclusive.

[1] COc1ccc(CC(=O)OCC(=O)c2ccc3c(c2)OCCCO3)cc1
[2] CC(=O)CC(C)=Nc1ccccc1
[3] CC(=O)NCCNC(=O)CCc1ncc(-c2ccc(Cl)cc2Cl)o1
[4] Nc1nnnn1Cc1nnc(SCc2cccc(Cl)c2)n1-c1ccccc1
[5] CCOC(=O)c1ccc(NC(=O)NCc2nc(-c3ccccc3)oc2C)cc1
[6] Cn1c(=O)[nH]c(=O)c2c1nc(N1CCN(C/C=C/c3ccccc3)CC1)n2Cc1ccc(Cl)cc1
[7] Cc1cc2oc(=O)cc(CN(C)CCOc3ccc(F)cc3)c2cc1Cl
[8] Cc1ccc2c(CN(C)CCOc3ccc(F)cc3)cc(=O)oc2c1

Screen / compound no.,1,2,3,4,5,6,7,8
miR-21 reporter,·,·,·,·,·,·,·,·
Apoferritin bind,·,·,·,·,·,·,·,·
LDHA block,-30.2*,1.4,-15.5,1.5,10.2,6.1,6.6,-32.8*

Next section, starting with the last two of the part before.
[7] Cc1cc2oc(=O)cc(CN(C)CCOc3ccc(F)cc3)c2cc1Cl
[8] Cc1ccc2c(CN(C)CCOc3ccc(F)cc3)cc(=O)oc2c1
[9] N#Cc1ccc(/C=C2/CCOc3ccc(Br)cc3C2=O)cc1
[10] CCOc1ccc2c(c1)cc(C(=O)Nc1ccccc1OCC)n2C
[11] CCOc1ccc2c(c1)cc(C(=O)Nc1ccc(OC)cc1)n2C
[12] COc1ccc(CSC(=N)N)cc1[N+](=O)[O-]
[13] CCCCCOc1ccc(CSC(=N)N)cc1[N+](=O)[O-]
[14] Cc1cc(C(=O)COc2cccc(C#N)c2)c(C)n1CCC(C)C
[15] CCOCCCNc1nc2c(c(=O)[nH]c(=O)n2C)n1CCC(C)C
[16] O=C(O)C1=CC(=C(c2ccc(O)c(C(=O)O)c2)c2ccc(O)c(C(=O)O)c2)C=CC1=O

Screen / compound no.,7,8,9,10,11,12,13,14,15,16
miR-21 reporter,·,·,·,·,·,18.1%,15.3%,·,·,·
Apoferritin bind,·,·,·,·,·,-4.0%,8.91µM*,·,·,·
LDHA block,6.6,-32.8*,-5.1,-32.6*,12.9,-1.5,-2.7,11.8,10.3,-74.7*

[17] O=C(O)c1cc(O)ccc1O
[18] Cc1ccc2c(CN(Cc3cccs3)C(C)C)cc(=O)oc2c1
[19] COCC(=O)N1CCN(c2oc(-c3ccc(C)cc3)nc2S(=O)(=O)c2ccc(F)cc2)CC1
[20] COCC(=O)N1CCN(c2oc(-c3cccc(C)c3)nc2S(=O)(=O)c2ccc(F)cc2)CC1
[21] Cc1oc2cc(OC(=O)c3ccc4c(c3)OCO4)ccc2c(=O)c1-c1ccccc1
[22] Cc1oc2cc(OC(=O)c3ccc(S(C)(=O)=O)cc3)ccc2c(=O)c1-c1ccccc1
[23] CCCN(CC#N)CC(=O)NC(=O)NCc1ccccc1
[24] COc1ccccc1CNS(=O)(=O)c1ccc2[nH]cc(C(=O)O)c(=O)c2c1

Screen / compound no.,17,18,19,20,21,22,23,24
miR-21 reporter,·,·,·,·,·,·,·,-2.3%
Apoferritin bind,·,·,·,·,·,·,·,-10.4%
LDHA block,4.3,0.8,-35.5*,1.6,-30.3*,-1.9,3.9,-56.3*

[25] COc1ccccc1CNS(=O)(=O)c1ccc2[nH]c3c(c2c1)CCCCC3
[26] COc1cc(/C=C2/SC(=S)NC2=O)ccc1OS(=O)(=O)c1ccc(C)cc1
[27] COc1cc(/C=C2\SC(=S)NC2=O)ccc1OS(=O)(=O)c1ccccc1
[28] CCOc1ccccc1CNC(=O)CN1C(=O)c2cccnc2Oc2ccc(Cl)cc21
[29] CCc1ccc(CNC(=O)CN2C(=O)c3cccnc3Oc3ccc(Cl)cc32)cc1
[30] N#Cc1ccc(NS(N)(=O)=O)cc1
[31] O=C(CC1C(=O)NCCN1Cc1cccc(F)c1F)NCCCC1CCCC1 (centres undefined)
[32] Cc1ccc(CN2CCNC(=O)C2CC(=O)NC2CCCCCC2)cc1 (centres undefined)

Screen / compound no.,25,26,27,28,29,30,31,32
miR-21 reporter,?,22.3%,10.9%,6.9%,14.0%,·,-7.5%,-3.7%
Apoferritin bind,38.8%,-23.9%,-18.2%,?,?,·,31.6µM*,?
LDHA block,-0.7,-34.3*,·,-12.0,-32.5*,1.9,1.5,0.9

[33] O=C(CC1C(=O)NCCN1CC1CCCCC1)NCc1cccc(F)c1F (centres undefined)
[34] O=C(CC1C(=O)NCCN1Cc1ccc(F)cc1)NC1CCCCCCC1 (centres undefined)
[35] COc1cc(/C=C/C(=O)OC2CCC(C(C)(C)C)CC2)cc(OC)c1OC (centres undefined)
[36] CCOc1ccccc1CN1CCN(S(=O)(=O)CC)CC1
[37] COc1ccc(CN2CCN(Cc3cccc(OC)c3OC)CC2)cc1
[38] CCS(=O)(=O)N1CCN(Cc2ccccc2OC)CC1
[39] COc1cccc(CN2CCN(Cc3cc(OC)c(OC)c(OC)c3)CC2)c1OC
[40] CN(C)C1(CNC(=O)C2CCN(C(=O)c3ccc(F)cc3)CC2)CCCCC1

Screen / compound no.,33,34,35,36,37,38,39,40
miR-21 reporter,-8.0%,-4.8%,·,-3.4%,·,-3.9%,2.1%,·
Apoferritin bind,?,15.8µM*,·,-7.5%,·,-1.6%,-3.3%,·
LDHA block,1.2,1.4,8.0,?,-0.3,-31.5*,-35.0*,0.8

[41] Oc1cccc(C2c3[nH]c4ccccc4c3CCN2Cc2ccc3c(c2)CCO3)c1 (centres undefined)
[42] Oc1cccc(C2c3[nH]c4ccccc4c3CCN2Cc2ccoc2)c1 (centres undefined)
[43] Cc1ccc(NC(=O)CN(C)C(=O)Cn2ccsc2=N)cc1
[44] Cc1ccc(Oc2ccc(NC(=O)Cn3ccsc3=N)cc2)cc1
[45] CC(CCc1ccco1)NC(=O)c1ccc(Cl)c(S(C)(=O)=O)c1 (centres undefined)
[46] CC(Cc1ccco1)NC(=O)c1ccc(Cl)c(S(C)(=O)=O)c1 (centres undefined)
[47] CSc1ccccc1NC(=O)CNCCCN1CCOCC1
[48] CCc1ccccc1NC(=O)C(=O)NCCCN1CCOCC1

Screen / compound no.,41,42,43,44,45,46,47,48
miR-21 reporter,23.0%,1.7%,0.4%,12.4%,·,·,-1.6%,9.4%
Apoferritin bind,-14.0%,-8.3%,2.6%,12.6µM*,·,·,-1.6%,2.3%
LDHA block,-6.8,-121.5*,-8.9,-5.7,-1.9,-37.2*,-36.2*,-8.1

[49] CC1(C)C2CCC(C2)C1(C)NC(=O)CN1CCN(Cc2ccccc2)CC1 (centres undefined)
[50] Cc1ccc(NC(=O)CN2CCN(Cc3ccccc3)CC2)cc1
[51] Cc1ccc(NS(=O)(=O)c2cc(NC(=O)Cc3n[nH]c(=O)c4ccccc34)ccc2C)c(C)c1
[52] O=C(C1=C(O)C(=O)N(CCCn2ccnc2)C1c1ccncc1)c1cc2ccccc2o1 (centres undefined)
[53] O=C(c1cccnc1)N1CCN(Cc2ccccc2Br)CC1
[54] O=C(c1cccnc1)N1CCN(Cc2cccc(Br)c2)CC1
[55] COc1ccccc1C(=O)N1CCN(Cc2cccnc2)CC1
[56] COc1ccccc1C(=O)N1CCN(C2CCN(Cc3ccccc3)CC2)CC1

Screen / compound no.,49,50,51,52,53,54,55,56
miR-21 reporter,-10.3%,-19.5%,·,·,-3.7%,1.0%,0.8%,-4.3%
Apoferritin bind,-15.1%,-10.2%,·,·,-7.0%,-7.5%,-1.3%,-9.6%
LDHA block,-40.3*,-3.2,-1.9,5.9,-31.5*,-19.6,-32.6*,-15.6

Structural class: the compounds so far with a COOH group (3)
[16] O=C(O)C1=CC(=C(c2ccc(O)c(C(=O)O)c2)c2ccc(O)c(C(=O)O)c2)C=CC1=O
[17] O=C(O)c1cc(O)ccc1O
[24] COc1ccccc1CNS(=O)(=O)c1ccc2[nH]cc(C(=O)O)c(=O)c2c1

Screen / compound no.,16,17,24
miR-21 reporter,·,·,-2.3%
Apoferritin bind,·,·,-10.4%
LDHA block,-74.7*,4.3,-56.3*

The listing continues:
[57] Cc1ccc2c(COC(=O)Cc3n[nH]c(=O)c4ccccc34)cc(=O)oc2c1C
[58] CCc1ccc(NCc2cc(=O)n3[nH]c(-c4ccccc4)nc3n2)cc1
[59] O=C(O)C(c1ccccc1)N1C(=O)/C(=C\c2ccc(-c3ccc(Br)cc3)o2)SC1=S (centres undefined)
[60] O=C(O)C(c1ccccc1)N1C(=O)/C(=C\c2ccc(-c3ccccc3Cl)o2)SC1=S (centres undefined)
[61] CCCC(=O)N1N=C(c2ccc(OC)cc2)CC1c1ccc2nccnc2c1 (centres undefined)
[62] Nc1nnc(CC(=O)N/N=C/c2cc([N+](=O)[O-])cc(Br)c2O)s1
[63] Nc1nnc(CC(=O)N/N=C/c2cccc([N+](=O)[O-])c2)s1
[64] Nc1nc(COc2ccccc2C(=O)NCc2ccccc2)nc(Nc2ccc(F)cc2)n1
[65] O=C(NC1CCN(Cc2ccc(F)cc2)CC1)c1cccs1
[66] c1csc(CNCCCn2ccnc2)c1
[67] CCn1c(O)c(/C=C2\C=Nc3ccccc32)sc1=Nc1ccccc1

Screen / compound no.,57,58,59,60,61,62,63,64,65,66,67
miR-21 reporter,·,·,-0.6%,0.7%,·,1.0%,-1.2%,·,·,·,-64.8%
Apoferritin bind,·,·,-11.9%,3.7%,·,-21.9%,-15.6%,·,·,·,-19.0%
LDHA block,4.2,9.6,-2.4,-30.2*,-5.3,-85.6*,0.7,-4.4,-5.7,8.4,-7.1
